Data taken from ChEMBL document CHEMBL4145694, “Potent and Selective Tetrahydroisoquinoline Kappa Opioid Receptor Antagonists of Lead Compound (3 R)-7-Hydroxy- N-[(1 S)-2-methyl-1-(piperidin-1-ylmethyl)propyl]-1,2,3,4-tetrahydroisoquinoline-3-carboxamide (PDTic)” (J Med Chem, 2018).

Tests used:
Homo sapiens [1] = species: Homo sapiens; assay: Selectivity index, ratio of Ke for antagonist activity at human delta-opioid receptor expressed in CHO cell membranes to Ke for antagonist activity at human kappa-opioid receptor expressed in CHO cell membranes; assay type: cell-based
Homo sapiens [2] = species: Homo sapiens; assay: Selectivity index, ratio of Ke for antagonist activity at human mu-opioid receptor expressed in CHO cell membranes to Ke for antagonist activity at human kappa-opioid receptor expressed in CHO cell membranes; assay type: cell-based

CC(C)[C@@H](CN1CCCCC1)NC(=O)[C@H]1Cc2ccc(O)cc2CN1
Ratio Ke (Homo sapiens [1]): > 441
Ratio Ke (Homo sapiens [2]): 21
